# This is a selection; strong and weak results do not stand in their true shares. Calls of active or inactive are those of the source. No stated cut-off is given here; in the data, active means activity change below about -25%; inactive means the rest.
# Chains of the proteins cited; added tags and fusions are not shown.
# UniProt Q92551, whole entry: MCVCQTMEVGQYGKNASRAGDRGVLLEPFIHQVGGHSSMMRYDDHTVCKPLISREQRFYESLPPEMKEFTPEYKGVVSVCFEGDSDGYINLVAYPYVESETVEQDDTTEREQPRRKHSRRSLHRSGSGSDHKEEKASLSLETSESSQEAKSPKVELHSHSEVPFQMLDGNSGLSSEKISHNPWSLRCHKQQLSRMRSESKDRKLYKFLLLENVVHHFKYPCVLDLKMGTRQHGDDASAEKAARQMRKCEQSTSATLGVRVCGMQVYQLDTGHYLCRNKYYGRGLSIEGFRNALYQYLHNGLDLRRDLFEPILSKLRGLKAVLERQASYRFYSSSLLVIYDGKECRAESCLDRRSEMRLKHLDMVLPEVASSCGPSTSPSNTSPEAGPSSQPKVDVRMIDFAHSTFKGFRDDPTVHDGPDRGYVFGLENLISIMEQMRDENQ
# Biological target: Inositol hexakisphosphate kinase 1 (Homo sapiens) (UniProt Q92551)
# Assay: Primary qHTS assay for small molecule inhibitors of Inositol hexaphosphate kinase 1 (IP6K1); further: series mostly up to about 58 µM
# Details: ADP-Glo luminescence, 2 h, active compounds read low
# Description: Assay Provider: Huijun Wei, M.S., Ph.D. School of Medicine, Johns Hopkins University, Baltimore, MD Inositol hexakisphosphate kinases (IP6Ks) catalyze pyrophosphorylation of inositol hexakisphosphate (IP6) into inositol 5-diphospho-1,2,3,4,6-pentakisphosphate (IP7), which is involved in numerous areas of cell physiology including glucose homeostasis, blood coagulation and neurological development. Inhibition of IP6Ks may be effective for the treatment of Type II diabetes, thrombosis, and psychiatric disorders. We performed a quantitative high throughput screen (qHTS) of 158,410 compounds for IP6K1 inhibitors using ankinase activity ADP-Glo Max assay. […] Medicinal chemistry SAR efforts in three chemical series identified potent IP6K1 inhibitors, which were further validated in an orthogonal LC-MS IP7 analysis.
# PROTOCOL TABLE SEQUENCE No. (e.g., 1, 2, 3, etc.); […] (e.g., Cells, Incubation, Reagent, etc.); VALUE and DESCRIPTION. 1. Reagent, 3 uL of 1.3 mM ATP and 130 uM IP6 mixture in assay buffer was dispensed to a white, 1536-well assay plate. 2. Compound, 23 nL of compounds of the top two doses (57.5 uM and 19.1 uM final concentration) of the libraries were dispensed into the mixture using the Kalypsis pintool. 3. Reagent, 1 uL of 2.4 uM IP6K1 was dispensed to the assay plates. 4. Incubation, 2 hr incubation at room temperature. 5. Reagent, 2 uL of ADP-Glo reagent was added to the wells. 6. Incubation, 1 hr incubation at room temperature. 7. Reagent, 4 uL or ADP-Glo substate was added to the wells. 8. Incubation, 45 min incubation at room temperature. 9. Detection, luminescence signal was detected using the ViewLux microplate imager (PerkinElmer).
# On the % scale 0 is the no-effect control and ±100 the full control effect.
row,SMILES,activity change
1,CCOC(=O)N1CCC(=O)CC1,inactive: 7.44%
2,COc1ccccc1C(=O)NCC1(N2CCOCC2)CCCCC1,inactive: 9.39%
3,O=C(NCC1(N2CCOCC2)CCCCC1)c1ccc(Cl)cc1,inactive: -10.2%
4,CCCOc1cccc(C(=O)NCC2(N3CCOCC3)CCCCC2)c1,inactive: 16%
5,CCOc1ccc(C(=O)NCC2(N3CCOCC3)CCCCC2)cc1,inactive: -14.2%
6,O=C(NCC1(N2CCOCC2)CCCCC1)c1ccccc1Br,inactive: -6.37%
7,CCCCOc1ccccc1C(=O)NCC1(N2CCOCC2)CCCCC1,inactive: 13%
8,CCC(=O)N(c1ccccc1)C1CCNCC1,inactive: 20.5%
9,O=C(NCC1(N2CCOCC2)CCCCC1)c1ccccc1,inactive: 1.47%
10,O=C(NCC1(N2CCOCC2)CCCCC1)c1ccc([N+](=O)[O-])cc1,inactive: -4%
11,O=C(NCC1(N2CCOCC2)CCCCC1)c1ccccc1[N+](=O)[O-],inactive: 17.3%
12,CC(C)(C)c1ccc(C(=O)NCC2(N3CCOCC3)CCCCC2)cc1,inactive: -8.4%
13,Cc1ccccc1C(=O)NCC1(N(C)C)CCCCC1,inactive: -3.07%
14,CC(=O)N1CCc2ccc(N(C(=O)/C=C/c3cccc(C#N)c3)C3CCN(CCC4CCCC4)CC3)cc21,inactive: -5.68%
15,CN(C)C1(CNC(=O)c2ccc(C(C)(C)C)cc2)CCCCC1,inactive: -6.19%
16,COc1cc(C(=O)NCC2(N3CCOCC3)CCCCC2)cc(OC)c1OC,inactive: -8.51%
